From ChEMBL document CHEMBL2074273, “Reversal of breast cancer resistance protein (BCRP/ABCG2)-mediated drug resistance by novobiocin, a coumermycin antibiotic” (Int J Cancer, 2004)

By UniProt entry, the sequences of proteins in these tests, tags left out. Where a name states a change or a piece, a line headed by the entry shows the natural chain unless it says otherwise.
UniProt Q9UNQ0: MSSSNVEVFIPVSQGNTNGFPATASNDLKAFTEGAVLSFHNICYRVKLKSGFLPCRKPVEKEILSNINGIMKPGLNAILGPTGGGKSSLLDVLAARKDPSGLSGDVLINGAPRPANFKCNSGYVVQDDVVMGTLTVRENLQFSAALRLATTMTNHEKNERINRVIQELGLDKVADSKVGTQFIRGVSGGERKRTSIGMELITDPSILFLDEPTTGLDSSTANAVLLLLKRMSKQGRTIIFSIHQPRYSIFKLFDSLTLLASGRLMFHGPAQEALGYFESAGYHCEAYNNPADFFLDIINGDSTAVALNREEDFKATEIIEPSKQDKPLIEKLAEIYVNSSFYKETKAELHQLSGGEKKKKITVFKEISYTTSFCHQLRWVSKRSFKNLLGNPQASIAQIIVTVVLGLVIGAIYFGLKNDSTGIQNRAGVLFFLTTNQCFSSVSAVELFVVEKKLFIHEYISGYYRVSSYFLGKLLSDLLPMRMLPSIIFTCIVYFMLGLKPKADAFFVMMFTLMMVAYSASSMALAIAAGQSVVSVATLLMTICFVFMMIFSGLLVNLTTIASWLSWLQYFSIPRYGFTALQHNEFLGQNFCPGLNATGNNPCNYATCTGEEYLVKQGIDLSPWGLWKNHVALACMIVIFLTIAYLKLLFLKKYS

Target: Broad substrate specificity ATP-binding cassette transporter ABCG2 (Homo sapiens, UniProt Q9UNQ0)
Assay: TP_TRANSPORTER: inhibition of ATP-depdent uptake of topotecan in membrane vesicle from BCRP-expressing PC-6/SN2-5H2 cells
Type: functional, cell membranes
Details: pc-6/sn2-5h

## CO[C@@H]1[C@@H](OC(N)=O)[C@@H](O)[C@H](Oc2ccc3c(O)c(NC(=O)c4ccc(O)c(CC=C(C)C)c4)c(=O)oc3c2C)OC1(C)C [NOVOBIOCIN]
  Ki: inhibitor [Ki=-100nM]
